Results reported in ChEMBL document CHEMBL1138860, “Design, synthesis, and evaluation of a potent, cell-permeable, conformationally constrained second mitochondria derived activator of caspase (Smac) mimetic” (J Med Chem, 2006).

Sequences of proteins named here, by UniProt entry; tags and fusion partners are left off.
UniProt P98170, whole entry: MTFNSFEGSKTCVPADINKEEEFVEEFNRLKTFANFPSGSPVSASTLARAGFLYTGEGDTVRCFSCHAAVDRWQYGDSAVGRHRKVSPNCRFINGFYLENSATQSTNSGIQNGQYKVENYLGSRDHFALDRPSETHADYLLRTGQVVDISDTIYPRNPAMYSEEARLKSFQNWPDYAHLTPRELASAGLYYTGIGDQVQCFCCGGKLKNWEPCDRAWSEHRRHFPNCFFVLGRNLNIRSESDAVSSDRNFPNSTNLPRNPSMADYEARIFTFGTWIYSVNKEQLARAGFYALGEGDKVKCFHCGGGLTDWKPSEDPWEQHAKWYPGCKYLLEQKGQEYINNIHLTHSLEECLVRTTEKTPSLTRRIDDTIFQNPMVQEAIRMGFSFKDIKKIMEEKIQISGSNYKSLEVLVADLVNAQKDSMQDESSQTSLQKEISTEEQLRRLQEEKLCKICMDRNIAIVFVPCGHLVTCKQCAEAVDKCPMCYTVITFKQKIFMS

Target: E3 ubiquitin-protein ligase XIAP (Homo sapiens, UniProt P98170)
Assay: Binding affinity to recombinant XIAP BIR3 by FP assay

- Ki: 25 nM
Compound: CC[C@H](N)C(=O)N[C@H]1CCC[C@H]2CC[C@@H](C(=O)NC(c3ccccc3)c3ccccc3)N2C1=O
